# Measurements published in published antibiotic growth screens (doi:10.1038/s41589-023-01349-8).
# Some of the results follow.
# Test system: A. baumannii ATCC 17978
# Assay: relative growth (fraction of control); higher = less inhibition
# Settings: 50 µM
row,SMILES,relative growth
1,COC(=O)[C@@H]1C[C@H](C#N)N[C@@H]1c1ccco1,0.999
2,COC(=O)Nc1nc2cc(C(=O)c3cccs3)ccc2[nH]1,0.971
3,COCC#Cc1ccc2c(c1)O[C@H](CN(C)S(=O)(=O)c1ccc(F)cc1)[C@@H](C)CN([C@@H](C)CO)S2(=O)=O,0.849
4,FC(F)(F)C(Cl)Br (centres undefined),0.956
5,O=C(O)CN1C(=O)c2cccc3cccc(c23)C1=O,1.04
6,COc1ccc(NC(=O)N[C@H]2CC[C@H](CCNC(=O)CN3CCOCC3)O[C@H]2CO)cc1,1.03
7,CCC(C)(C)c1ccc(CC(C)CN2C[C@@H](C)O[C@@H](C)C2)cc1.Cl (some centres undefined),0.928
8,C[C@H](CO)N1C[C@H](C)[C@H](CN(C)C(=O)CN(C)C)Oc2cc(-c3cncnc3)ccc2S1(=O)=O,0.982
9,CC(O)CN(CCN(CC(C)O)CC(C)O)CC(C)O (centres undefined),0.861
10,CN1CCC(OC(c2ccccc2)c2ccccc2)CC1.Cl,0.945
11,O=C(N/N=C/[C@H](O)[C@@H](O)[C@H](O)[C@H](O)CO)c1ccccn1,1.06
12,O=C(O)CCCCCCCC(=O)O,1.17
13,COC(=O)Cn1c(=O)c2c(OC)c(C)cnc2n(C)c1=O,0.99
14,CCCCCCCCCCCCCCCC(=O)OC/C=C(C)/C=C/C=C(C)/C=C/C1=C(C)CCCC1(C)C,0.989
15,C[C@H]1CC2C3CCC4=CC(=O)C=C[C@]4(C)[C@@]3(F)[C@@H](O)C[C@]2(C)[C@@]1(O)C(=O)COP(=O)([O-])[O-].[Na+].[Na+] (some centres undefined),0.936
16,CCOc1ccc2c(c1)-c1c(ssc1=S)C(C)(C)N2C,1.1
17,NCCCCCCNC(=O)[C@@H]1C[C@@H]2C(=O)N[C@@H](CCCCN)C(=O)N2[C@@H]1c1cccc(OCCO)c1,1.01
18,CN1CCN(C(=O)C[C@@H]2CC[C@@H]3[C@H](COC[C@@H](O)CN3C(=O)Nc3ccc4c(c3)OCO4)O2)CC1,0.951
19,CCCC(=O)Nc1ccc2c(c1)C(=O)N(C)[C@@H]1CC[C@@H](CC(=O)NCCN3CCCCC3)O[C@H]1CO2,1
20,Cc1c2occ(C(C)(C)C)c2cc2c3c(c(=O)oc12)CCCC3,1.01
21,O=C(C[C@@H]1CC[C@@H]2[C@H](COC[C@H](O)CN2S(=O)(=O)c2ccc(F)cc2)O1)N[C@@H]1CCN(Cc2ccccc2)C1,1.05

row,SMILES,relative growth
1,O=C(O)CNS(=O)(=O)c1ccccc1,0.934
2,NS(=O)(=O)c1cc(C2(O)NC(=O)c3ccccc32)ccc1Cl (centres undefined),1.22
3,OCc1cc(O)c2c(O)c3c(O)cccc3c(O[C@@H]3O[C@H](CO)[C@@H](O)[C@H](O)[C@H]3O)c2c1,0.996
4,CC(C)NC(=O)N[C@@H]1C=C[C@@H](CC(=O)NCCCN(C)C)O[C@H]1CO,1.04
5,N[C@@H]1CC[C@@H](CCn2cc(C3(O)CCCC3)nn2)O[C@H]1CO,1.01
6,CCCc1cc(C(N)=S)ccn1,0.952
7,Cn1cnc(CCNC(=O)C[C@@H]2CC[C@H]3[C@@H](COC[C@H](O)CN3C(=O)C3CC3)O2)c1,1.03
8,CCNC(=O)C[C@H]1CC[C@@H](NC(=O)C2CCOCC2)[C@@H](CO)O1,1.08
9,Nc1nnnn1/N=C\C=C\c1ccccc1,1.01
10,COc1cccc(S(=O)(=O)N[C@H]2CC[C@@H](CC(=O)NC3CCC3)O[C@@H]2CO)c1,0.879
11,CC1(C)C(=O)NCCN1C(=O)C1CC1,0.975
12,CO[C@H]1CN(C)C(=O)c2cc(NS(C)(=O)=O)ccc2OC[C@H](C)N(C(=O)C2CCCCC2)C[C@@H]1C,1.01
13,C[Si](C)(C)O[Si](C)(C)O[Si](C)(C)C,0.853
14,CC1(C)[C@@H]2CC[C@]1(C)C(=O)C2,0.952
15,CN(C)CC/C=C1\c2ccccc2Sc2ccc(Cl)cc21.Cl,0.851
16,O=C1CCC(=O)N1CNc1ccccn1,0.981
17,C[C@@H]1CN([C@@H](C)CO)S(=O)(=O)c2ccc(C#CCN(C)C)cc2O[C@@H]1CN(C)C(=O)c1ccccc1F,1.02
18,COCCOC(=O)N1C(=O)[C@@]2(c3cc(C#Cc4ccc(OC)cc4)ccc31)[C@H](c1ccc(O)cc1)N1[C@H](c3ccccc3)[C@H](c3ccccc3)OC(=O)[C@H]1[C@@H]2C(=O)N1CCc2cc(OC)c(OC)cc2C1,0.907
19,COc1ccc([C@H]([C@H](Cc2ccccc2)OC(C)=O)N(C[C@H](/C=C/c2ccccc2)OC(C)=O)[C@@H](Cc2ccccc2)C(OC)OC)cc1,1.13
20,O=C(C[C@H]1C=C[C@@H](NC(=O)Cc2ccccn2)[C@H](CO)O1)NCCc1ccncc1,1.03
21,CC[N+](C)(CC)Cc1ccccc1,1.1

row,SMILES,relative growth
1,C[C@@H]1CN([C@@H](C)CO)C(=O)c2cccc(NC(=O)Nc3cccc4ccccc34)c2O[C@H]1CN(C)S(=O)(=O)c1ccc2c(c1)OCCCO2,1.06
2,O=C(CN1CCOCC1)N[C@H]1CC[C@@H](CCn2cc(C3CCCC3)nn2)O[C@H]1CO,0.961
3,C[C@H](CO)N1C[C@H](C)[C@@H](CN(C)C(=O)c2cccc(F)c2)Oc2cc(-c3ccncc3)ccc2S1(=O)=O,1.08
4,CO[C@@H]1CN(C)C(=O)c2ccc(NS(=O)(=O)c3cn(C)cn3)cc2OC[C@@H](C)N(CCC(F)(F)F)C[C@@H]1C,1.15
5,CN(C)CCN(Cc1ccc(Cl)cc1)c1ccccn1.Cl,1.16
6,O=C(C[C@@H]1CC[C@@H]2[C@H](COC[C@H](O)CN2C(=O)c2ccncc2)O1)NCc1ccc(-c2ccccc2)cc1,1.04
7,CC(CCc1ccc(O)cc1)NCCc1ccc(O)c(O)c1.Cl (centres undefined),0.964
8,Cc1ccccc1S(=O)(=O)N1C[C@H](O)COC[C@H]2O[C@H](CC(=O)N3CCC(Cc4ccccc4)CC3)CC[C@@H]21,0.835
9,COc1cccc(S(=O)(=O)N(C)C[C@@H]2Oc3c(NC(=O)Nc4cccc5ccccc45)cccc3C(=O)N([C@@H](C)CO)C[C@H]2C)c1,0.993
10,C[C@]12CCC(=O)C=C1[C@@H]1C[C@@H]1C1C2CC[C@@]2(C)C1[C@@H]1C[C@@H]1[C@@]21CCC(=O)O1 (some centres undefined),1.03
11,C1CCN=C(NC2CCCCC2)CC1,0.984
12,CC(C)c1ccc(/C=C2\CSc3ccccc3C2=O)cc1,1.01
13,Cc1[nH]c2ccccc2c1C(=O)CSc1ccc(Cl)cc1,1.17
14,O=C(CN1C(=O)c2ccccc2C1=O)N1CCNCC1,0.958
15,COCC#Cc1ccc2c(c1)O[C@@H](CN(C)C(=O)c1ccccc1F)[C@H](C)CN([C@H](C)CO)S2(=O)=O,1.07
16,NCC[C@@H]1CC[C@@H](NC(=O)C2CCCC2)[C@H](CO)O1,1.15
17,CC(C)N1CCN(c2ccc(OC[C@H]3CO[C@](Cn4cncn4)(c4ccc(Cl)cc4Cl)O3)cc2)CC1 (racemic),1.05
18,Cn1cnc(S(=O)(=O)N2C[C@@H](O)COC[C@@H]3O[C@H](CC(=O)NC4Cc5ccccc5C4)CC[C@H]32)c1,1.1
19,C[C@H](O)[C@H](O)[C@@H](O)[C@@H](O)/C=N/NC(=O)CCCCC(=O)NO,1.02
20,CN(C)[C@@H]1C(O)=C(C(N)=O)C(=O)[C@@]2(O)C(O)=C3C(=O)c4c(O)ccc(Cl)c4[C@@H](O)[C@H]3C[C@@H]12.Cl,0.167
21,CON(C)c1nc(Oc2ccc(=O)[nH]n2)nc(N(C)C)n1,1.09

row,SMILES,relative growth
1,CC(C)(CO)[C@@H](O)C(=O)NCCC(=O)[O-].[Na+] [PANTOTHENIC ACID(d) Na salt],0.929
2,COc1ccc2c(=O)c(OC)c(-c3ccccc3)oc2c1,0.939
3,COC(=O)C[C@H]1C(C)(C)[C@@H](OC(C)=O)[C@@H]2CC3C4CC(=O)O[C@@H](c5ccoc5)[C@]4(C)CCC3[C@@]1(C)C2=O (some centres undefined),1.03
4,COc1cc(OC)nc(N=CNO)n1,1.16
5,COCCOC(=O)N1C(=O)[C@@]2(c3cc(C#CCCO)ccc31)[C@H](C(=O)NC[C@H](O)c1ccccc1)[C@H]1C(=O)O[C@H](c3ccccc3)[C@H](c3ccccc3)N1[C@@H]2c1ccc(O)cc1,0.984
6,C=C1C(=O)O[C@@H]2/C=C(\CO[C@@H]3O[C@H](CO)[C@@H](O)[C@H](O)[C@H]3OC(=O)Cc3ccc(O)cc3)CC/C=C(/C=O)C[C@H](O)[C@@H]12,1.12
7,C[C@@H]1CN([C@H](C)CO)S(=O)(=O)c2ccc(C#Cc3cccnc3)cc2O[C@H]1CN(C)CC1CCOCC1,0.9
8,CC(C)NC(=O)N[C@@H]1C=C[C@@H](CC(=O)NCCN2CCCC2)O[C@@H]1CO,1.08
9,C[C@H](CO)N1C[C@H](C)[C@H](CN(C)C(=O)CN(C)C)Oc2cc(C#Cc3ccccc3)ccc2S1(=O)=O,1.06
10,C=CCSc1nc(=O)cc(N)[nH]1,1.15
11,COc1ccc(-c2cc(=O)c3ccccc3o2)cc1,0.926
12,Cn1cnc(S(=O)(=O)N2C[C@@H](O)COC[C@@H]3O[C@@H](CC(=O)N4CCN(c5ccccc5)CC4)CC[C@H]32)c1,1.02
13,CO[C@H]1/C=C/O[C@@]2(C)Oc3c(C)c(O)c4c(O)c(c(/C=N/N5CCN(C6CCCC6)CC5)c(O)c4c3C2=O)NC(=O)/C(C)=C\C=C\[C@H](C)[C@H](O)[C@@H](C)[C@@H](O)[C@@H](C)[C@H](OC(C)=O)[C@@H]1C,0.185
14,COc1cccc(OC)c1C(=O)N[C@@H]1C(=O)N2[C@@H]1SC(C)(C)[C@@H]2C(=O)[O-].[Na+],1.13
15,O=c1c(O)c(-c2ccccc2)oc2cc(O)ccc12,0.962
16,O=C(O)c1ccc(CCO)s1,0.929
17,COc1ccc(-c2coc3cc(OC)cc(OC)c3c2=O)cc1,1.09
18,N[C@@H](CSCc1ccccc1Cl)C(=O)O,0.997
19,CN1CCN(C(=O)C[C@@H]2CC[C@@H]3[C@@H](COc4ccc(NC(=O)C5CCCCC5)cc4C(=O)N3C)O2)CC1,1.09
20,O=C(COc1ccc(Cl)cc1Cl)NCCn1ncc2c(=O)n(Cc3cccc([N+](=O)[O-])c3)cnc21,0.884
21,Cl.Clc1cccc(Cl)c1N=C1NCCN1,1.09
